# Earlier results, collected in patent publication US20050245504A1, “Treatment of diseases with combinations of alpha 7 Nicotinic Acetylcholine Receptor agonists and other compounds” (priority 2002, published 2005).
# Details: amyotrophic lateral sclerosis
smiles,measurement,value
Nc1nc2ccc(OC(F)(F)F)cc2s1 [Riluzole],survival of patients,prolong the survival
